# Test results from article PMC10133546, “Simultaneous determination of multiple components in rat plasma by UHPLC-sMRM for pharmacokinetic studies after oral administration of Qingjin Yiqi Granules” (Frontiers in Pharmacology, 2023).
# Columns and labels:
# [1] = Stability of analytes in rat plasma (auto-sampler, freeze-thaw, room temperature, long-term); details: for Room temperature for 24 h Accuracy (%): room temperature 24 h; for Freeze thaw cycles Accuracy (%): three freeze-thaw cycles; for Autosampler for 24 h Accuracy (%): autosampler 24 h
# [2] = Stability of the working solution (4°C for 1 month); type: physicochemical
compound,measurement,setting,value
COc1cc(/C=C/C(=O)O)ccc1O [ferulic acid],Room temperature for 24 h Accuracy (%),[1]; 500 ng/mL,89.2%
same,Freeze thaw cycles Accuracy (%),[1]; 500 ng/mL,102.0%
O=c1c(O[C@@H]2O[C@H](CO)[C@H](O)[C@H](O)[C@H]2O)c(-c2ccc(O)c(O)c2)oc2cc(O)cc(O)c12 [hyperoside],Room temperature for 24 h Accuracy (%),[1]; 12.5 ng/mL,102.0%
same,−80°C for 1month Accuracy (%),"[1]; 500 ng/mL, −80°C 1 month",102.0%
same,Working solution Accuracy (%),[2]; 1.56 ng/mL,97.6%
O=C(O)[C@H]1O[C@@H](Oc2cc3oc(-c4ccc(O)cc4)cc(=O)c3c(O)c2O)[C@H](O)[C@@H](O)[C@@H]1O [scutellarin],Autosampler for 24 h Accuracy (%),[1]; 50 ng/mL,102.0%
same,Freeze thaw cycles Accuracy (%),[1]; 50 ng/mL,102.0%
O=C1C[C@@H](c2ccc(O)cc2)Oc2cc(O)cc(O)c21 [naringenin],Autosampler for 24 h Accuracy (%),[1]; 12.5 ng/mL,101.0%
same,Room temperature for 24 h Accuracy (%),[1]; 50 ng/mL,101.0%
same,Freeze thaw cycles Accuracy (%),[1]; 50 ng/mL,104.0%
same,Freeze thaw cycles Accuracy (%),[1]; 100 ng/mL,101.0%
same,Freeze thaw cycles Accuracy (%),[1]; 500 ng/mL,102.0%
O=c1cc(-c2ccccc2)oc2cc(O)c(O)c(O)c12 [baicalein],Freeze thaw cycles Accuracy (%),[1]; 50 ng/mL,96.3%
same,Room temperature for 24 h Accuracy (%),[1]; 100 ng/mL,95.6%
CC1(C)[C@@H](O[C@H]2O[C@H](C(=O)O)[C@@H](O)[C@H](O)[C@H]2O[C@@H]2O[C@H](C(=O)O)[C@@H](O)[C@H](O)[C@H]2O)CC[C@]2(C)[C@H]3C(=O)C=C4[C@@H]5C[C@@](C)(C(=O)O)CC[C@]5(C)CC[C@@]4(C)[C@]3(C)CC[C@@H]12 [glycyrrhizic acid],Room temperature for 24 h Accuracy (%),[1]; concentration 12.5 ng/mL,101.0%
same,Freeze thaw cycles Accuracy (%),[1]; concentration 50 ng/mL,102.0%
same,Freeze thaw cycles Accuracy (%),[1]; concentration 100 ng/mL,101.0%
same,Working solution Accuracy (%),[2]; concentration 12.5 ng/mL,101.0%
